In PMC9029692, “Targeted Degradation of 53BP1 Using Ubiquitin Variant Induced Proximity” (Biomolecules, 2022):

Target: T1, RFWD3^WD40 (human, UniProt Q6PCD5 439-774)
T1 construct: RFWD3 (RING finger and WD repeat domain 3), human, C-terminal WD40 domain; also called WD40 domain of RFWD3 (RING finger and WD repeat domain 3); source: provided by Dr. Yufeng Tong; purified
T1 sequence (looked up): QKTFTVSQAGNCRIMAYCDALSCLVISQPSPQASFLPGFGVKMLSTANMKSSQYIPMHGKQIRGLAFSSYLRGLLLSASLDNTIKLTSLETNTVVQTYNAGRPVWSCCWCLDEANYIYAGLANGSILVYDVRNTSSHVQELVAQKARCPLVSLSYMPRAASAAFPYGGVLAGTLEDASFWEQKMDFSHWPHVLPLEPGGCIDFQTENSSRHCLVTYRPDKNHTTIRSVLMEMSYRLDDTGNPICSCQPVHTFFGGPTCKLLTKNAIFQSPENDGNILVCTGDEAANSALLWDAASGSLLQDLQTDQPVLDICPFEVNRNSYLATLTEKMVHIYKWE
Assay: ELISA; E3 ligase domain (1 µM) immobilised on MaxiSorp plates overnight at 4 °C; serial dilutions of FLAG-tagged UbV, wild type Ub or GST-tagged RPA2 (0-4 µM, 24 points, 1:2) incubated 20 min at room temperature; detected with anti-FLAG or anti-GST HRP conjugate; n = 3
Conditions: both partners purified

EC50: 0.152 µM
B1: GST-tagged RPA2 (natural protein, UniProt P15927 1-270, looked up)
chain: MWNSGFESYGSSSYGGAGGYTQSPGGFGSPAPSQAEKKSRARAQHIVPCTISQLLSATLVDEVFRIGNVEISQVTIVGIIRHAEKAPTNIVYKIDDMTAAPMDVRQWVDTDDTSSENTVVPPETYVKVAGHLRSFQNKKSLVAFKIMPLEDMNEFTTHILEVINAHMVLSKANSQPSAGRAPISNPGMSEAGNFGGNSFMPANGLTVAQNQVLNLIKACPRPEGLNFQDLKNQLKHMSVSSIKQAVDFLSNEGHIYSTVDDDHFKSTDAE
notes: RPA2 (replication protein A subunit, RPA32); also called RPA32
